Measured values: patent US20120015352A1, “METHOD OF DETERMINING SENSITIVITY OF HUMAN OR NON-HUMAN ANIMAL CELLS TO AN IAP ANTAGONIST” (Otto-von-Guericke-Universitat Magdeburg, priority 2009, published 2012)

Columns and labels:
A549 cells = assay: Knockdown of cFLIP, AnnexinV/propidium iodide FACS apoptosis; type: cell-based; settings: cFLIP siRNA; 100 ng/ml TNFα, 24 hr
Method: (§1) Knockdown of cFLIP. Cell lines were plated into 24 well plates at a density of 35,000 cells per well. Next day, cell lines were transfected with 100 nM control siRNA or siRNA designed to silence expression of cFLIP (L & S isoform). 48 hrs after transfection cells were treated with 100 ng/ml TNFα, 100 nM Smac mimetic, or the combination of both. (The Smac mimetic used herein was a compound other than Compound A.) After an additional 24 hr incubation, all cells were harvested and stained with FITC labeled AnnexinV and Propidium Iodode. Staining was analyzed by flow cytometry.

IGROV-1 cells = assay: as above; type: cell-based; settings: cFLIP siRNA; 100 ng/ml TNFα, 24 hr
Method: as §1

TNFα: TNF alpha, death ligand used at 100 ng/ml
sensitization (apoptosis) to TNFα alone (A549 cells): No significant sensitization | sensitization (apoptosis) to TNFα alone (IGROV-1 cells): No significant sensitization
